# Data published in PubChem BioAssay AID504734 (The Scripps Research Institute Molecular Screening Center, 2011).
# The chains behind the UniProt entries cited, without tags or fusion partners.
# UniProt Q9NR96, whole entry: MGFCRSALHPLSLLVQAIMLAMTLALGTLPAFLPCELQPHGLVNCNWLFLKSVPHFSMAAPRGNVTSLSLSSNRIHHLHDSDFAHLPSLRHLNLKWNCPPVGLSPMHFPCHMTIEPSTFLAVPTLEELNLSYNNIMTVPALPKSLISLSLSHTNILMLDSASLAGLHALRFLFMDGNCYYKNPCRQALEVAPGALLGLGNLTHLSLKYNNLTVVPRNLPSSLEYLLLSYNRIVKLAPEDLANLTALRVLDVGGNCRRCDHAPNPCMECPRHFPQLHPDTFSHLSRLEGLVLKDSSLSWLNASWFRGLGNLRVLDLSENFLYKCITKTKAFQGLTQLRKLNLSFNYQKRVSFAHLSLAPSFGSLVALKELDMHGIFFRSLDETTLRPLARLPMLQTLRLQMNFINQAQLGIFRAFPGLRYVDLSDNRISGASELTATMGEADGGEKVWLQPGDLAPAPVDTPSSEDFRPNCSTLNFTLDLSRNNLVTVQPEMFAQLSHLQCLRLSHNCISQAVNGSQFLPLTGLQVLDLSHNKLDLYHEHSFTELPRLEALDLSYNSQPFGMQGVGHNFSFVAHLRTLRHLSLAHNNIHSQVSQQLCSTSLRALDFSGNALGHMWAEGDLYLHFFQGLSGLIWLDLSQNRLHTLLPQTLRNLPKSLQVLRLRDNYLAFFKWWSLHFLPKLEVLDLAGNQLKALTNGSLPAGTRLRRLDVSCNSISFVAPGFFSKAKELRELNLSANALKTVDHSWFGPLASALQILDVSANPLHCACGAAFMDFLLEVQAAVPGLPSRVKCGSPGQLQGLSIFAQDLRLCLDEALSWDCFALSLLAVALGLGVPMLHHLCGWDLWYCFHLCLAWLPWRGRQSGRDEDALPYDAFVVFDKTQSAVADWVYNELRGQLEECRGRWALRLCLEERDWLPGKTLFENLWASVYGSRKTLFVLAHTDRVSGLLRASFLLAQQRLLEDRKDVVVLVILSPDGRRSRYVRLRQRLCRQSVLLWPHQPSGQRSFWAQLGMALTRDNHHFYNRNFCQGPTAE
# This is a selection; strong and weak results do not stand in their true shares. Active and inactive are the calls of the source.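 How the source made its calls: active means inhibition above the mean over all tested compounds plus 3 SD (cut at about 21% in these data); inactive means the rest.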
# Molecular target: Toll-like receptor 9 (Homo sapiens) + Myeloid differentiation primary response protein MyD88 (Homo sapiens) (UniProt Q9NR96+Q99836)
# Assay: inhibitors of TLR9-MyD88 association in cells, primary screen, cell-based, CHO, BLA complementation, fluorescence (AID 504734);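 further: 0% = DMSO only wells and 100% = clavulanate BLA inhibitor control wells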
# Details: CHO BLA complementation TLR9-MyD88, CCF4 FRET ratio; at 4.98 µM; hits give high values
row,SMILES,inhibition
1,CCOC(=O)C(CC)C1=NC(C)(C)Cc2ccccc21.O=[N+]([O-])c1cc([N+](=O)[O-])c(O)c([N+](=O)[O-])c1 (stereo unspecified),inactive: -9.34%
2,COc1ccccc1OP(C)(=O)Nc1c(C)cccc1C (stereo unspecified),inactive: -10.2%
3,CN1CCCCC1COC(=O)C1(O)c2ccccc2CCc2ccccc21 (stereo unspecified),inactive: 0.21%
4,CP(=O)(Nc1ccc(SC(F)(F)F)cc1)Oc1ccccc1 (stereo unspecified),inactive: 2.21%
5,CCCOc1ccc(NP(C)(=O)Oc2ccc(Cl)cc2)cc1 (stereo unspecified),inactive: 0.39%
6,O=C(O)c1cccc(Nc2c([N+](=O)[O-])cc([N+](=O)[O-])cc2[N+](=O)[O-])c1,inactive: -0.19%
7,CC1=NCCc2c1[nH]c1ccccc21.O=[N+]([O-])c1cc([N+](=O)[O-])c(O)c([N+](=O)[O-])c1,inactive: 1.44%
8,COc1ccccc1OP(C)(=O)Nc1cccc(Br)c1 (stereo unspecified),inactive: -7.15%
9,Cc1cc(C)cc(OP(C)(=O)Nc2ccc(C)cc2C)c1 (stereo unspecified),inactive: 1.63%
10,CCOC(=O)c1ccc(NP(C)(=O)Oc2cc(C)cc(C)c2)cc1 (stereo unspecified),inactive: 0.05%
11,CP(=O)(Nc1cccc(Br)c1)Oc1ccccc1 (stereo unspecified),inactive: -5.32%
12,Cc1cc(C)cc(OP(C)(=O)Nc2ccccn2)c1 (stereo unspecified),inactive: 8.01%
13,Cc1ccc(C)c(NP(C)(=O)Oc2ccccc2)c1 (stereo unspecified),inactive: 5.89%
14,CCN(CC)CCCOC(=O)C(O)(c1ccccc1)c1ccccc1,inactive: -2.1%
15,O=[N+]([O-])c1cc([N+](=O)[O-])c(Nc2cccnc2)c([N+](=O)[O-])c1,inactive: -11.6%
16,CC(C)(C)c1ccc(OP(C)(=O)Nc2ccc(SC(F)(F)F)cc2)cc1 (stereo unspecified),inactive: -4.26%
17,Cc1cccc(C)c1OP(C)(N)=O (stereo unspecified),inactive: -0.56%
18,O=[N+]([O-])c1ccc2c(c1)C=Nc1ccccc1O2,inactive: 4.45%

row,SMILES,inhibition
1,CCOC(=O)c1ccc(NP(C)(=O)Oc2ccccc2)cc1 (stereo unspecified),inactive: 2.58%
2,COc1ccccc1OP(C)(=O)Nc1ccc(C)cc1 (stereo unspecified),inactive: -10.6%
3,Cc1ccc(NP(C)(=O)Oc2ccccc2)c(C)c1 (stereo unspecified),inactive: -0.14%
4,COc1ccccc1OP(C)(=O)Nc1cc(Cl)ccc1C (stereo unspecified),inactive: -6.73%
5,COc1ccc(OP(C)(=O)Nc2cccc(F)c2)cc1 (stereo unspecified),inactive: 0.74%
6,Cc1cc(C)cc(OP(C)(N)=O)c1 (stereo unspecified),inactive: -7.27%
7,CP(=S)(Nn1cnnc1)Oc1ccccc1 (stereo unspecified),inactive: 4.19%
8,COc1ccccc1OP(C)(=O)Nc1ccccc1 (stereo unspecified),inactive: -1.18%
9,CP(=O)(Nc1ccccc1Br)Oc1ccccc1 (stereo unspecified),inactive: -3.73%
10,Cc1ccc(Nc2c([N+](=O)[O-])cc([N+](=O)[O-])cc2[N+](=O)[O-])cc1,inactive: -0.89%
11,Cc1cccc(C)c1OP(C)(=O)Nc1ccc(SC(F)(F)F)cc1 (stereo unspecified),inactive: -2.85%
12,CP(=O)(Oc1ccccc1)OC(c1ccccc1)C(F)(F)F (stereo unspecified),inactive: 2.04%
13,CCc1ccc(OP(C)(=O)N2CCN(c3ccc([N+](=O)[O-])cc3)CC2)cc1 (stereo unspecified),inactive: 8.34%
14,CP(=O)(NC(=O)Nc1ccccc1)Oc1ccccc1 (stereo unspecified),inactive: 3.37%
15,Cc1cc(C)cc(OP(C)(=O)Nc2ccc(SC(F)(F)F)cc2)c1 (stereo unspecified),inactive: 5.37%
16,CCOP(C)(=S)SCC(=O)NC(C)C(=O)O (stereo unspecified),inactive: 5.61%
17,CCOC(=O)c1ccc(NP(C)(=O)Oc2ccc(OC)cc2)cc1 (stereo unspecified),inactive: 1.02%
18,CP(=O)(Nc1ccccn1)Oc1ccc(Cl)cc1 (stereo unspecified),inactive: 9.21%
